# This is a selection; strong and weak results do not stand in their true shares. Results filed as inconclusive are left out. Activity calls are given as the source filed them. Calls follow the shape of the dose curve; as a rule, active = well fitted inhibition curve with a large enough effect in the polarisation, with a control signal flat (not every such curve was filed as active); inconclusive = small, poorly fitted or top-dose-only effect, or effect the other way, or a change in a side signal; inactive = no such curve, though single readings can be large or run the other way; the % refers to the polarisation.
# Amino acid sequences for entries named in this document (tags omitted).
# UniProt Q13526, whole entry, looked up: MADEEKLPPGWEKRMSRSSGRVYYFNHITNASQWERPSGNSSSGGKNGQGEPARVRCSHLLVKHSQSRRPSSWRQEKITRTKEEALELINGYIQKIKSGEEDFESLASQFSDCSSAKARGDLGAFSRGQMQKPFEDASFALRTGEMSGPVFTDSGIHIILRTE
# Target: Peptidyl-prolyl cis-trans isomerase NIMA-interacting 1 (Homo sapiens) (UniProt Q13526)
# Experiment: qHTS Assay to Find Inhibitors of Pin1
# Details: Pin1 FP peptide displacement, HiFluor488, 10 min; at 115 µM (top of the series)
# % is scaled to controls: 0 for no effect and ±100 for the full control effect.
row,Structure (SMILES),"activity, negative = inhibition"
1,CCC(C)N(CC(C)C)C(=S)SC(NC(C)=O)C(Cl)(Cl)Cl (stereo not drawn),inactive: 2.52%
2,CCOP(=O)(Nc1cccc2cccnc12)OCC,inactive: -4.41%
3,O=C(OC1CN2CCC1CC2)c1cccc([N+](=O)[O-])c1 (stereo not drawn),inactive: -6.9%
4,CCOC(=O)c1ccc(NC(=O)C(C)(CCl)SC)cc1 (stereo not drawn),inactive: -5.17%
5,O=C(COc1ccccc1)OC1CN2CCC1CC2 (stereo not drawn),inactive: -1.78%
6,O=C(Nc1ccncc1[N+](=O)[O-])c1ccc([N+](=O)[O-])cc1[N+](=O)[O-],inactive: -3.31%
7,COP1(=S)c2c(C)nn(CCC#N)c2N=C(c2ccc(F)cc2)N1C (stereo not drawn),inactive: -0.471%
8,Cc1cc(SC(NC=O)C(Cl)(Cl)Cl)ncn1 (stereo not drawn),inactive: -1.66%
9,O=P(Nc1ccccn1)(c1cccc2ccccc12)c1cccc2ccccc12,inactive: -5.05%
10,O=[N+]([O-])c1ccc(Nc2ccc(Oc3ccc([N+](=O)[O-])cc3[N+](=O)[O-])cc2)c([N+](=O)[O-])c1,inactive: -3.16%
11,CCOC(=O)Nc1cccc([As](=O)(O)O)c1,inactive: 4.41%
12,CCCCOc1ccc(C(=O)NCC2(N3CCCCC3)CCCCC2)cc1OC,inactive: 6.41%
13,Cc1cc(SC(NC(=O)c2ccccc2)C(Cl)(Cl)Cl)nc(C(C)C)n1 (stereo not drawn),inactive: -1.92%
14,CCOC(=O)Nc1ccc([As](=O)(O)O)c(O)c1,inactive: -15.2%
15,CC1CCNP(=O)(N(CCCl)CCCl)O1 (stereo not drawn),inactive: 1.57%
16,CC(C)NC(=O)NP(=O)(Oc1ccccc1)Oc1ccccc1,inactive: 3.7%
17,CCN(CC)C(=S)SC(NC=O)C(Cl)(Cl)Cl (stereo not drawn),inactive: -6.15%
18,O=C(OC1CN2CCC1CC2)c1cccc2[nH]cnc12 (stereo not drawn),inactive: 1.52%
19,O=[N+]([O-])c1cc([N+](=O)[O-])c(-c2ccn[nH]2)s1,inactive: -14.4%
20,ClCCSc1nnc(-c2cccnc2)o1,inactive: -5.14%
21,COC(=O)C1(C)COP(=O)(N2CCCCCC2)OC1 (stereo not drawn),inactive: -2.19%

row,Structure (SMILES),"activity, negative = inhibition"
1,CC(C)c1ccc(OP(=O)(Nc2ccccn2)Oc2ccccc2F)cc1 (stereo not drawn),inactive: 0.376%
2,Cc1ccc(OP(=O)(Nc2ccc([N+](=O)[O-])cn2)Oc2ccc(C)cc2)cc1,inactive: 0.749%
3,Cc1ccc2nc3c(c(C)c2c1)CC(C(Cl)Cl)S3 (stereo not drawn),inactive: 3.05%
4,O=[As](O)(c1ccc(O)cc1)c1ccccc1O,inactive: -0.905%
5,C[As](=O)(O)c1cccc(C(=O)O)c1,inactive: 1.1%
6,COc1cc(C(=O)NCC2(N3CCOCC3)CCCCC2)ccc1OCC(C)C,inactive: 3.16%
7,O=[N+]([O-])c1cc(Oc2ccc([N+](=O)[O-])cc2C(F)(F)F)cc([N+](=O)[O-])c1,inactive: -3.51%
8,COc1ccc(N/C(=N/P(=O)(N2CCOCC2)N2CCOCC2)N2CCOCC2)cc1,inactive: -7.72%
9,O=P1(N(CCCl)CCCl)OCCCN1CCCl (stereo not drawn),inactive: 4.27%
10,O=P1(N(CCCl)CCCl)Nc2ccccc2N1,inactive: -9.89%
11,COc1ccc2nc(NP(=O)(c3ccccc3)c3ccccc3)sc2c1,inactive: 0.159%
12,COc1cc(I)ccc1[As](=O)(O)O,inactive: -1.52%
13,Cc1c2c(nc3ccccc13)SC(C(Cl)Cl)C2 (stereo not drawn),inactive: 0.833%
14,O=C(OC1CN2CCC1CC2)C12CC3CC(CC(C3)C1)C2 (stereo not drawn),inactive: -0.744%
15,Cc1cc(=O)[nH]c(N[N+](=O)[O-])n1,inactive: -1.68%
16,COc1cc(C2NCCC3(OCCO3)C2(C)C)cc(OC)c1OC (stereo not drawn),inactive: -7.11%
17,CCOP(=O)(Nc1cccc2ccccc12)OCC,inactive: -4.67%
18,Cc1ccc(NCCc2c([N+](=O)[O-])cc([N+](=O)[O-])cc2[N+](=O)[O-])cc1,inactive: -6.6%
19,Nc1cccc2c([As](=O)(O)O)cccc12,inactive: -0.436%
20,CCCOP(=S)(Nc1nc(N)cc(=O)[nH]1)OCCC,inactive: 2.82%
21,Cc1cccc(OCC(=O)OC2CN3CCC2CC3)c1 (stereo not drawn),inactive: 1.75%

row,Structure (SMILES),"activity, negative = inhibition"
1,O=[As](O)(c1cccc(O)c1)c1cccc(O)c1,inactive: -6.9%
2,O=C(OC1CN2CCC1CC2)c1ccc(Cl)cc1 (stereo not drawn),inactive: -12.1%
3,O=[As](O)(O)c1cccnc1,inactive: -11%
4,COc1cc(C(=O)NCC2(N3CCOCC3)CCCCC2)cc(Cl)c1OC(C)C,inactive: 5.84%
5,CS(=O)(=O)c1ccc(Cl)c(NC(=O)COC(=O)C(O)(c2ccccc2)c2ccccc2)c1,inactive: -0.163%
6,N#CCCN(C(=O)COC(=O)C(O)(c1ccccc1)c1ccccc1)c1ccc(F)cc1,inactive: -3.75%
7,CN(C(=O)Cc1ccccc1)[C@@H]1CC[C@]2(CCCO2)C[C@H]1N1CCCC1,inactive: -2%
8,CCOP1(=S)c2c(C)nn(CCC#N)c2N=C(c2ccc(F)cc2)N1C (stereo not drawn),inactive: 2.95%
9,O=[N+]([O-])c1ccc2c(c1)nnn2O,inactive: -1.94%
10,CN(C)C(=O)c1cc([N+](=O)[O-])cc2c1-c1c(cc([N+](=O)[O-])cc1[N+](=O)[O-])C2=O,inactive: 9.64%
11,CN(C(=O)Cc1ccc(Cl)c(Cl)c1)[C@H]1CC[C@@]2(CCCO2)C[C@@H]1N1CCCC1,inactive: -0.0792%
12,NC(=O)Nc1ccc([As](=O)(O)O)cc1,inactive: -0.96%
13,O=C(O)COc1ccc([As](=O)(O)O)cc1[N+](=O)[O-],inactive: -11.8%
14,Nc1ccccc1[As](=O)(O)c1ccccc1,inactive: -0.826%
15,CCOP1(=S)c2c(C)nn(CCC#N)c2N=C(c2ccccc2F)N1C (stereo not drawn),inactive: -1.89%
16,O=P(Nc1nccs1)(Oc1ccccc1)Oc1ccccc1,inactive: 0.492%
17,O=P(Nc1nccs1)(c1ccccc1)c1nc2ccccc2s1 (stereo not drawn),inactive: -1.9%
18,Nc1cccc([As](=O)(O)c2ccccc2)c1,inactive: -3%
19,Cc1ccc(OCC(=O)OC2CN3CCC2CC3)cc1 (stereo not drawn),inactive: 0.566%
20,O=[As](O)(c1cccs1)c1cccs1,inactive: -6.61%
21,NS(=O)(=O)c1cccc(NC(=O)COC(=O)C(O)(c2ccccc2)c2ccccc2)c1,inactive: -1.09%

# Reference: PubChem BioAssay AID504891 (National Center for Advancing Translational Sciences (NCATS), 2011)
